Reference: article PMC9864848, “A Study of the Interaction between Xanthine Oxidase and Its Inhibitors from Chrysanthemum morifolium Using Computational Simulation and Multispectroscopic Methods” (Metabolites, 2023)

Amino acid sequences for entries named in this document (tags omitted).
UniProt P80457, whole entry: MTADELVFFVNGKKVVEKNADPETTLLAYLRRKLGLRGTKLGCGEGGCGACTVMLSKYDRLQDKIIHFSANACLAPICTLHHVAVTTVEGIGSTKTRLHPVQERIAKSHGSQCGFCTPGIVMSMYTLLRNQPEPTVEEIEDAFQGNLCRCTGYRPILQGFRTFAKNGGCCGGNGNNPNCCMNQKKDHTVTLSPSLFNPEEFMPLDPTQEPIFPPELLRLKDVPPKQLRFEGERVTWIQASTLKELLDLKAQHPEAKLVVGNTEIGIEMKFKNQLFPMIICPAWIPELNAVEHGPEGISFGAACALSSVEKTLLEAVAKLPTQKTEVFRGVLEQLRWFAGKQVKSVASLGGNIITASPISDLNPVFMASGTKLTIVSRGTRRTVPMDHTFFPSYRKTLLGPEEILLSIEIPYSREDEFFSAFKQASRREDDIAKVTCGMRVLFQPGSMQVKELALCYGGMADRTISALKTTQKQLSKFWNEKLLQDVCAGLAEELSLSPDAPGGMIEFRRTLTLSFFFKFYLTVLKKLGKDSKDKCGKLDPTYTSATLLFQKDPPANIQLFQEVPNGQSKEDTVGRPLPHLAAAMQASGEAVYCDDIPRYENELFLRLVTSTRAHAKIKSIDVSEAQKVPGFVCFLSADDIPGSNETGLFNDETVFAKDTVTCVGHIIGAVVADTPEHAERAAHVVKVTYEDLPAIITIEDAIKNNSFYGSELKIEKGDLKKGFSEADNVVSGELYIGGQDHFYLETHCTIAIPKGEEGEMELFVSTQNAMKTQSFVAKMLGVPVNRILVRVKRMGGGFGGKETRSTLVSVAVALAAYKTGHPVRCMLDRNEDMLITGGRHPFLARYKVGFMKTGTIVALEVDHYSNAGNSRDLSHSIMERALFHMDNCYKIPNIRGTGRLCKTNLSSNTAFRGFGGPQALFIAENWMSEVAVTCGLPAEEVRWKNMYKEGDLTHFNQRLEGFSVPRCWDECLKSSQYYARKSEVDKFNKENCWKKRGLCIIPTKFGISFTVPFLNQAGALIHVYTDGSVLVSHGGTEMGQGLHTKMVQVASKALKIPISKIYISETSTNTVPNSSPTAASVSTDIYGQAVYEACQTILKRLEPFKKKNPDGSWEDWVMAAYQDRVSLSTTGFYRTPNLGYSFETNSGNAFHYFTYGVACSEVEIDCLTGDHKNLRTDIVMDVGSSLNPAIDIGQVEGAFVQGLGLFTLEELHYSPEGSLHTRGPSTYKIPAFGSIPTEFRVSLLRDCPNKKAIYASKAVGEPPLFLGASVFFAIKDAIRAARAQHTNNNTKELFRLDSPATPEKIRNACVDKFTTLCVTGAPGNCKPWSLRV

Biological target: T1, XO (Bos taurus, UniProt P80457)
T1 construct: purchased Roche Diagnostics (Mannheim, Germany)
Test: Fluorescence quenching assay of XO
Format: binding, Bovine
Conditions: Modified Stern-Volmer association constant Ka, pH 7.5
Experimental: The assay was carried out by referring to a previous method with slight modifications. […] Titrations were performed manually and mixed carefully. […] The excitation wavelength was set at 280 nm, and the excitation and emission slits were 5 nm. The fluorescence background was corrected by subtracting the relevant blanks corresponding to the potassium phosphate buffer (pH 7.5).
To distinguish the mechanism of quenching various inhibitors on XO, the fluorescence quenching output was analyzed by applying the Stern-Volmer equation [34]: F0/F=1+KSV[Q]=1+Kqτ0[Q] where F0 and F represent the steady-state fluorescence intensities of XO in the absence and presence of the respective inhibitor. KSV is the Stern-Volmer quenching constant, determined from the slope of the linear regression of F0/F against the [Q] plot. [Q] represents the concentration of the inhibitor.
Then, Ka values for the inhibitor-XO complex at three different temperatures were calculated from the linear regression of F0/(F0 − F) against 1/[Q].

O=c1c(O)c(-c2ccc(O)cc2)oc2cc(O)cc(O)c12 [Kaempferol, kaempferol]
Kd (298 K): 1740 nM | Kd (304 K): 3440 nM | Kd (310 K): 2090 nM
